The target in one experiment is T1, fMet-Leu-Phe receptor (Homo sapiens) (UniProt P21462).
T1 sequence (whole entry): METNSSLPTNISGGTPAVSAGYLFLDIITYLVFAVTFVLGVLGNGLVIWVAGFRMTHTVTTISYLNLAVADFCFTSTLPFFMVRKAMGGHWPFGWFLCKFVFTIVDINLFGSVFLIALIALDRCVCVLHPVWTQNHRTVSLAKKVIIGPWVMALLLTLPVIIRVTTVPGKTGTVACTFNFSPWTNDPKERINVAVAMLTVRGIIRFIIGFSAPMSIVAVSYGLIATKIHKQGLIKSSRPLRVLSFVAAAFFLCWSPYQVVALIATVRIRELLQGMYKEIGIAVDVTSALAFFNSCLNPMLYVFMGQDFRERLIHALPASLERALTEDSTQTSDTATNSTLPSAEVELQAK
Nature of the experiment: Antagonist activity against FPR1 in human neutrophils assessed as calcium mobilization preincubated for 30 mins followed by fMLF addition and measured for 5 sec for 240 sec by fluorometry. It is filed as functional. A general note: A change in cytosolic calcium serves as a functional read-out for many receptors and channels.
`COC(=O)[C@@H](Cc1ccccc1)NC(=O)[C@H](Cc1c[nH]c2ccccc12)NC(=O)OC(C)(C)C`: the Activity entry is “Dose-dependent effect”.
In the case of `COC(=O)[C@@H](Cc1ccccc1)NC(=O)[C@H](Cc1c[nH]c2ccccc12)NC(=O)C1CCCCC1`, the Activity result was “Dose-dependent effect”.
As for `COC(=O)[C@@H](Cc1ccccc1)NC(=O)[C@H](Cc1c[nH]c2ccccc12)NC(=O)CC(C)C`, the Activity result was “Dose-dependent effect”.
As to `COC(=O)[C@H](NC(=O)[C@H](Cc1c[nH]c2ccccc12)NC(=O)c1ccccc1)C(C)C`, the Activity entry is “Dose-dependent effect”.
Still for that read-out and setting: the value for `COC(=O)[C@@H](CC(C)C)NC(=O)[C@H](Cc1c[nH]c2ccccc12)NC(=O)c1ccccc1` was “Dose-dependent effect”.

For a further experiment, the system named is Neutrophil. Put plainly: Inhibition of fMLF-induced migration of human neutrophil preincubated for 30 mins followed by fMLF stimulation and measured after 60 mins by luminescence based assay. Type of experiment: functional, cell-based.
As to `COC(=O)[C@@H](Cc1ccccc1)NC(=O)[C@H](Cc1c[nH]c2ccccc12)NC(=O)c1ccccc1`, the inhibition entry is “Dose-dependent effect”.
The same measure, in the same setting: the entry for `COC(=O)[C@@H](Cc1ccccc1)NC(=O)[C@H](Cc1c[nH]c2ccccc12)NC(=O)C1CCCCC1` is “Dose-dependent effect”; for `COC(=O)[C@H](Cc1ccccc1)NC(=O)[C@H](Cc1c[nH]c2ccccc12)NC(=O)c1ccccc1` it is “Dose-dependent effect”; for `COC(=O)[C@@H](CC1CCCCC1)NC(=O)[C@H](Cc1c[nH]c2ccccc12)NC(=O)c1ccccc1` it is “Dose-dependent effect”.

(Values after ChEMBL document CHEMBL4373681, “Aurantiamide-related dipeptide derivatives are formyl peptide receptor 1 antagonists” (Medchemcomm, 2019).)
